Experimental findings from publication PMC3068151, “Lithocholic Acid Is an Eph-ephrin Ligand Interfering with Eph-kinase Activation” (PLoS ONE, 2011) are described below.

Amino acid sequences for entries named in this document (tags omitted). Residues count along the entry.
UniProt P29317, 24-976: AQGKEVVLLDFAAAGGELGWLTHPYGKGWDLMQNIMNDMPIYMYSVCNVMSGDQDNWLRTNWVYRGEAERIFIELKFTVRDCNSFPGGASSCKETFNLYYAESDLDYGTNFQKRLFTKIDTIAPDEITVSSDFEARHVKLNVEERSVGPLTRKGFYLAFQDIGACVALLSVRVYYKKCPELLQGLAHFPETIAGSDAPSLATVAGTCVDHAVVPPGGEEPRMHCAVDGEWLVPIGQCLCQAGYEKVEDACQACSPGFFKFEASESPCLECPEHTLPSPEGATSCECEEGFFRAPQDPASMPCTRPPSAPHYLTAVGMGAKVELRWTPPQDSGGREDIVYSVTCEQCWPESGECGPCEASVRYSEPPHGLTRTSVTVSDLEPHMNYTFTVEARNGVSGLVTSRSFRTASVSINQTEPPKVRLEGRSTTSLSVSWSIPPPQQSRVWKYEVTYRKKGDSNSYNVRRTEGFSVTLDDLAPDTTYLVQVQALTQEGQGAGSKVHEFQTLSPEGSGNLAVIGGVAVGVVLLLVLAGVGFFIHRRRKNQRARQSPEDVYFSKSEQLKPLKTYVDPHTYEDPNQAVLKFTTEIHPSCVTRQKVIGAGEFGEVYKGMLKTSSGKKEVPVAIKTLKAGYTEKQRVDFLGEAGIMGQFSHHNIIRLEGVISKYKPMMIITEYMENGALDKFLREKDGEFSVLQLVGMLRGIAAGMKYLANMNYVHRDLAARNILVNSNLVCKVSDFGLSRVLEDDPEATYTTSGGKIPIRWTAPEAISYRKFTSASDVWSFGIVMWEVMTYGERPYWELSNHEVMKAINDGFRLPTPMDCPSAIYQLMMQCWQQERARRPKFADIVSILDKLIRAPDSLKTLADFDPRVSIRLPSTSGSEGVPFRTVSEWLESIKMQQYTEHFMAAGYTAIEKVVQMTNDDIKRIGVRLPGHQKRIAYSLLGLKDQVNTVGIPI

The IC50 is the concentration that gives 50% inhibition.

Test [1] concerns the target T1, EphA2 (Homo sapiens, UniProt P29317). Put plainly: Phosphorylated-EphA2 sandwich ELISA in HT29 cell lysates. The test is classed as cell-based. Further details: their known ability to naturally express EphA2; endogenous in cells; host or cells: HT29 (A6). The following applies: HT29 cells, 0.25 µg/ml ephrinA1-Fc; read-out: IC50 ephrinA1-Fc induced EphA2 phosphorylation. In general terms: ELISA stands for enzyme-linked immunosorbent assay.

Test [2] addresses T1, EphA2. As to the kind of experiment: Phosphorylated-EphA2 sandwich ELISA in PC3 cell lysates. Further details: their known ability to naturally express EphA2; endogenous in cells; host or cells: PC3 (A5). The following applies: PC3 cells, 0.25 µg/ml ephrinA1-Fc; read-out: IC50 ephrinA1-Fc induced EphA2 phosphorylation. The test is classed as cell-based.

In the case of `C[C@H](CCC(=O)O)[C@H]1CC[C@H]2[C@@H]3CC[C@@H]4C[C@H](O)CC[C@]4(C)[C@H]3CC[C@]12C` [LCA, lithocholic acid], the results for the 50% inhibitory concentration (IC50) in test [1] and in test [2] were 66 µM and 48 µM, respectively.
